Earlier results as cited in patent US8765768B2, “Heterocyclic compounds and their uses” (Amgen Inc., priority 2010, dated 2014).

Protein sequences, listed by entry. Tags and fused reporters are not part of them. Lines headed by an entry give the natural chain unless they say otherwise; changes in a name come on top.
UniProt P42338: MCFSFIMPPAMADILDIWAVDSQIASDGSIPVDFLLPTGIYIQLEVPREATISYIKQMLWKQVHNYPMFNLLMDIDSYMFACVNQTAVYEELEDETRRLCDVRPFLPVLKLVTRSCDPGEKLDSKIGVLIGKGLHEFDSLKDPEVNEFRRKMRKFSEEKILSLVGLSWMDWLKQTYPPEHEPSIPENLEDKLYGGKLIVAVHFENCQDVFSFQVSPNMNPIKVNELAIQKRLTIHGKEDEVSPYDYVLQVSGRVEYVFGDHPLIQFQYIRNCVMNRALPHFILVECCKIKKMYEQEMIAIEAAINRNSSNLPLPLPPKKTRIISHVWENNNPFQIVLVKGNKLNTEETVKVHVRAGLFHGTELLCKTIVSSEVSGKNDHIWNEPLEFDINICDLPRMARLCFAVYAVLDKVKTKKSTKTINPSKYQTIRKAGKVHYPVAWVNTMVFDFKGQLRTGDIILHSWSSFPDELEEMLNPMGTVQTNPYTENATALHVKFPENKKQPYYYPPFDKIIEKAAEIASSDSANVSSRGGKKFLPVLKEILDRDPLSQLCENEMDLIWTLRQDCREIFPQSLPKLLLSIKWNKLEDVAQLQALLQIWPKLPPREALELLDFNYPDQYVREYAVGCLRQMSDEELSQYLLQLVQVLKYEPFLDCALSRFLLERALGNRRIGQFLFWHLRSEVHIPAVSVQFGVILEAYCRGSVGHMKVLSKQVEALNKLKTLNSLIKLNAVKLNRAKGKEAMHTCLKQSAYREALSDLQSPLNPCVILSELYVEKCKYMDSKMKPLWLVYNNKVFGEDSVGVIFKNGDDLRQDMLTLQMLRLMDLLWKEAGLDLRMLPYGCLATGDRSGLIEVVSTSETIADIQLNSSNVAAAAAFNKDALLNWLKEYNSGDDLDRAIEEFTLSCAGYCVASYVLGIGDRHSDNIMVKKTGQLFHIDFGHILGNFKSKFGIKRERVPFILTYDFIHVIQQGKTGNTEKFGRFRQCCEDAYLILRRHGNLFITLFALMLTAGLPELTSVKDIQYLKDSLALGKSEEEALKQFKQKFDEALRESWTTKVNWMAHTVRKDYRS

Target: p110β (Homo sapiens, UniProt P42338)
Conditions: on beta; quantity type not given; read-out: potency on beta

SMILES: Cc1cc(C(C)Nc2ccccc2)c2nc(N3CCOCC3)cc(=O)n2c1 (stereo not shown) [TGX-221]
- IC50: 7 nM
